Values of other authors, collected in patent US20260069581A1, “METHODS AND COMPOSITIONS FOR CANCER THERAPY” (OHIO STATE INNOVATION FOUNDATION, priority 2020, published 2026).

Molecular target: T1, HDAC8 (Homo sapiens, UniProt Q9BY41)
T1 sequence (Q9BY41 1-377): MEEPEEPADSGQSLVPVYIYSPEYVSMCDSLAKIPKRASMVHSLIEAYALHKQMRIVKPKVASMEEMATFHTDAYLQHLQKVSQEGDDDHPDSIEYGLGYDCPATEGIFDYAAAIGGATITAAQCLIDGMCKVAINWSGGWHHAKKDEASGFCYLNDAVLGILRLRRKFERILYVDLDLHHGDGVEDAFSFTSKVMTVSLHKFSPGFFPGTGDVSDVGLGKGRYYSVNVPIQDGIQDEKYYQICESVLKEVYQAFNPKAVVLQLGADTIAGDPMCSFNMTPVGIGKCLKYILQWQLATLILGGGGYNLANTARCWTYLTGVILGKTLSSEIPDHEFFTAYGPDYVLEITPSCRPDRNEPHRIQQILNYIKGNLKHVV
Conditions: Ref. 25; cited from earlier work

In the case of COc1ccc(Cn2ccc3ccc(C(=O)NO)cc32)cc1 [PCI-34051], the “selectivity for HDAC8 over other HDAC isoforms” value is listed as over 200 fold.
